# Screening data from PubChem BioAssay.
# Hits are enriched below; roughly 2.8% of the tested compounds scored in any of these assays.
# miR-122 sensor = miR-122 Renilla sensor signal increase in Huh7, primary screen, miR-122 inhibitor project, cell-based, single point, plate reader | Huh7 miR-122 Renilla luciferase sensor, 48 h; neutral wells = 0, positive control = 100 | 0.3% of 340,000 active | activation (reporter increase), % at 12.5 µM;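 active = mean replicate activation score at least 90 and every replicate individually at or above 90; inconclusive = only one of the two criteria met; inactive = neither criterion met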;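 also: higher luciferase means less miR-122 activity so hits act as miR-122 inhibitors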
# MITF act = activators of MITF-driven TRPM1 promoter reporter, primary screen, cell-based, SK-MEL-5, luciferase, single point. activation, % at 12.5 µM. 0.75% of 300,000 active. SK-MEL-5 TRPM1-promoter luciferase, 24 h; % of positive control, neutral wells = 0. AID 588334, 2011;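 active = mean activation of at least 80% with every replicate also reaching 80%; inconclusive = mean reaches 80% but some replicate falls short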
# PglD DTNB = C. jejuni PglD acetyltransferase inhibitors, primary screen, biochemical, DTNB colorimetric, single point | UDP-N-acetylbacillosamine N-acetyltransferase PglD (Campylobacter jejuni) | purified PglD enzyme, DTNB colorimetric CoA detection | inhibition, % at 12.5 µM | 0.098% of 360,000 active | AID 602405, 2012; in the data active = inhibition above about 16%, passing the limit was not always enough; inconclusive = no clear call, values can overlap the other calls
# Yeast UUG start = alters start codon recognition fidelity in yeast | S. cerevisiae UUG-firefly luciferase reporter, luminescence/redox ratio | activity score, % at 18.7 µM | hit rate 0.13% among 350,000 | AID 602363;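 active means replicate mean at a twofold rise or more, about +100% in these data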;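 further: firefly luciferase made from a UUG start codon reports start codon fidelity; reporter light over untreated wells divided by growth signal over untreated wells; some hits fall short of that in this replicate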
# esBAF inh = Bmi1 luciferase reporter increase in mESCs, primary screen, esBAF inhibitor project, mouse ES cells, Bmi1 luciferase knock-in, single point; 24 h; 100% = twice the neutral-well signal; reporter increase, % at 12.5 µM; 2% of 350,000 active; in the data active = activation above about 40%; inconclusive = no clear call, values can overlap the other calls;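 also: a rise in the Bmi1 reporter signal indicates esBAF inhibition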
# Wnt bcat act = Wnt/beta-catenin pathway activators, primary screen, cell-based, plate reader, single point. 1.2% of 300,000 active. Wnt/beta-catenin reporter cell assay, activator. activation, % at 9.35 µM; in the data active = activation above about 30%, passing the limit was not always enough; inconclusive = no clear call, values can overlap the other calls
# A number is an active result; n = inactive; u = inconclusive; x = not tested or not shown.
SMILES,miR-122 sensor,MITF act,PglD DTNB,Yeast UUG start,esBAF inh,Wnt bcat act
Cc1ccc(C(=O)n2nc(-c3ccccc3)nc2NCc2ccco2)cc1,n,n,n,n,n,n
O=C(c1cccs1)n1nc(-c2ccc(Cl)cc2)nc1NCc1ccco1,x,x,x,x,x,52
C[C@@H]1CN([C@@H](C)CO)C(=O)c2cc(C#Cc3cccnc3)cnc2O[C@@H]1CN(C)C(=O)CN(C)C,n,x,n,n,n,x
O=C(NCCc1ccccc1)[C@@H]1[C@@H](CO)[C@@H]2Cn3c(cccc3=O)[C@H]1N2CC1CC1,n,x,n,x,n,x
O=C(Nc1cc(Cl)cc(Cl)c1)N[C@H]1CC[C@H](CCNS(=O)(=O)c2cccc(F)c2)O[C@@H]1CO,x,x,n,n,n,x
COc1ccc(S(=O)(=O)Nc2ccc3c(c2)C(=O)N([C@@H](C)CO)C[C@@H](C)[C@@H](CN(C)C)OCCCC[C@H](C)O3)cc1,n,x,n,x,x,x
COc1ccc(N2C(=S)NC3N2C(=S)NC3(C)c2ccccc2)cc1 (stereo not drawn),x,n,x,x,x,65
O=C(NNC(=O)c1cc2cc(Br)ccc2oc1=O)c1ccc(O)cc1,n,n,n,n,n,n
O=C(Nc1ccccc1O)c1cc2cc(Br)ccc2oc1=O,x,101,n,n,n,u
CN1CCN(C(=O)[C@H]2[C@H](CO)[C@H]3Cn4c(cccc4=O)[C@@H]2N3Cc2ccncc2)CC1,x,x,n,x,n,x
Cn1cc(Cl)c(C(=O)Nc2cccc(Cl)c2Cl)n1,n,n,n,n,71,x
CCCOC(=O)c1cc(-c2ccc(C=O)o2)ccc1Cl,n,n,n,n,x,n
CCCCOC(=O)c1ccc(-c2ccc(/C=N/NC(=S)NCC)o2)cc1,n,n,x,x,46,n
CCOC(=O)c1cccc(-c2ccc(C=O)o2)c1,n,n,n,n,n,n
CCOC(=O)c1ccc(-c2ccc(C=O)o2)cc1,x,n,x,x,54,53
CCCOC(=O)c1ccc(-c2ccc(C=O)o2)cc1,n,n,n,n,76,n
CC(/C=N/NC(=O)c1cccnc1)=C\c1ccccc1,n,n,x,x,n,35
CC(=C/c1ccccc1)/C=N/NC(=O)c1cnccn1,n,x,n,n,n,n
C[C@@H]1CN([C@@H](C)CO)C(=O)c2cc(NC(=O)NC3CCCCC3)ccc2O[C@@H](C)CCCCO[C@H]1CN(C)S(=O)(=O)c1cccs1,n,x,n,n,n,x
O=C(Oc1cccc(/C=N/Nc2nc(Nc3ccccc3)nc(N3CCOCC3)n2)c1)c1ccco1,x,103,x,x,x,n
COC(=O)c1ccc(Nc2nc(N3CCOCC3)nc(N3CCOCC3)n2)cc1,n,93,n,n,n,n
CN1CCN(C(=O)C[C@@H]2CC[C@@H]3[C@H](COC[C@H](O)CN3Cc3ccc(Oc4ccccc4)cc3)O2)CC1,n,x,n,n,n,x
Cc1cc(C)n2nc(SCN3C(=O)c4ccccc4C3=O)nc2n1,n,84,n,n,n,n
Cc1cc(C)n2nc(SCC3COc4ccccc4O3)nc2n1 (stereo not drawn),n,x,n,n,63,n
Cc1cc(C)c(C#N)c(SCC2COc3ccccc3O2)n1 (stereo not drawn),n,n,n,n,n,n
SMILES,miR-122 sensor,MITF act,PglD DTNB,Yeast UUG start,esBAF inh,Wnt bcat act
Cc1cc(C)n2nc(SCC(=O)Nc3ccccc3)nc2n1,n,n,n,n,n,n
Cc1cc(C)n2nc(SCc3nnc(SCc4ccccc4C)s3)nc2n1,n,n,n,n,83,n
Cc1cc(C)n2nc(SCc3nnc(SCc4ccccc4Cl)s3)nc2n1,n,n,n,n,n,n
O=C(/C=C/c1ccc(Cl)c(Cl)c1)Nc1cccnc1,n,u,n,n,42,n
O=C(O)/C=C/C(=O)Nc1cccnc1,x,n,x,x,x,x
CC(C)(C)c1ccc(/C=C/C(=O)Nc2cccnc2)cc1,x,108,x,x,n,31
O=C(C[C@@H]1CC[C@@H]2[C@H](COC[C@H](O)CN2S(=O)(=O)c2ccccc2Cl)O1)N1CCC(Cc2ccccc2)CC1,n,x,n,n,n,x
CCOc1ccc(-c2nnc(SCC(=O)N3CCNC3=O)o2)cc1,n,n,n,n,n,45
